± gives the expanded uncertainty stated by the source.
How the values were obtained:
[1] = Crystal; DSC
[2] = Molar enthalpy of transition or fusion; settings: Crystal; DSC

**Q.** For `Cc1ccccc1S(N)(=O)=O` [o-toluenesulfonamide], which Triple point temperature [1] is on record?
**A.** Its Triple point temperature is 427.35 ± 1.2 K.

**Q.** What about the “Molar enthalpy of transition or fusion” value [2] of the same molecule?
**A.** The value was 7.03 ± 0.454 kcal/mol.

From the NIST ThermoML archive (doi:10.1021/acs.jced.9b00445)
